Laboratory results as given in patent publication US20200368338A1, “CONJUGATE OF WT1-DERIVED PEPTIDES AND COMPOSITION COMPRISING THE SAME” (SUMITOMO DAINIPPON PHARMA CO., LTD., priority 2017, published 2020).

Test system: HLA-A0201 transgenic mouse
Experiment: Evaluation of CTL inducing ability in vivo in HLA-A0201 transgenic mouse (IFNγ ELISPOT assay of splenocytes)
Conditions: intradermal emulsion with Montanide ISA 51 VG, tail base, two sites, splenocytes stimulated with peptide of SEQ ID NO: 2, FIG. 2

RMFPNAPYL (Arg-Met-Phe-Pro-Asn-Ala-Pro-Tyr-Leu) [peptide of SEQ ID NO: 2, HLA-A0201-restricted WT1 peptide]
induction of CTLs responsive to the peptide of SEQ ID NO: 2 (IFNγ-producing splenocytes): induced CTLs responsive to the peptide of SEQ ID NO: 2
